The numbers were not newly measured in patent US7041851B2, “Fluorinated phenyl thiophenyl derivatives and their use for imaging serotonin transporters” (The Trustees of the University of Pennsylvania, priority 2002, dated 2006), which cites them from elsewhere.

The chains behind the UniProt entries cited, without tags or fusion partners.
UniProt P31645, whole entry, species assumed: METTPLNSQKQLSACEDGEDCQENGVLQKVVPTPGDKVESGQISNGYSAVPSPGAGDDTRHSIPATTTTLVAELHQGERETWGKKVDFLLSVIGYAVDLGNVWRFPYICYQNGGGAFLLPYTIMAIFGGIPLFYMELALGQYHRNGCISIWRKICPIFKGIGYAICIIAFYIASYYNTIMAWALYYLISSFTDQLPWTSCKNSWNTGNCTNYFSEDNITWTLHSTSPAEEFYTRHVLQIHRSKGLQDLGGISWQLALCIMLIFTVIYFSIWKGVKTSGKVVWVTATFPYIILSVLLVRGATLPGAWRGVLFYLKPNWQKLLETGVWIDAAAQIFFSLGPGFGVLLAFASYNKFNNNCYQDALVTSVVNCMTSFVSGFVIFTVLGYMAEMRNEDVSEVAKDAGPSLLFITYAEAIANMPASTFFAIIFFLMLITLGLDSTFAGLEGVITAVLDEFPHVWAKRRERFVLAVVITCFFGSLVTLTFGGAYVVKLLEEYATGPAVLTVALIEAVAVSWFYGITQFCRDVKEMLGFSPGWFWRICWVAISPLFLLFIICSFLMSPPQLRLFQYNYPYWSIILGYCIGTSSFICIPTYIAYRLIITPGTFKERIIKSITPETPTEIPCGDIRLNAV

This data set concerns the target SERT (Homo sapiens, UniProt P31645). Particulars: Oya et al. 2001; Huang et al. 2001b; read-out: Ki SERT (literature); cited from earlier work.

`CN(C)Cc1ccccc1Sc1ccc(F)cc1N` [Compound 12, N,N-Dimethyl-2-(2-amino-4-fluorophenylthio)benzylamine]: the Ki is 4.8 nM.
